# FN deposition inh – fibronectin deposition inhibition; AH1F fibroblasts, Alexa488-fibronectin deposition fluorescence, overnight; 350,000 tested, 0.086% active; inhibition, % at 12.6 µM; AID 743247;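 active means mean inhibition across replicates of 30% or more, regardless of how many single replicates reach that level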;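 further: positive control wells lacked labelled fibronectin entirely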
#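 Material – AH1F fibroblast monolayer, labelled fibronectin deposition · Reagent – labelled fibronectin 24 nM · Timing – 1 h adhesion, overnight exposure · Measured by – fluorescence at 485 nm excitation, 525 nm emission · Read-out – inhibition of fibronectin deposition signal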
# PGC1a acetyl inh – PGC1a acetylation modulation, inhibitor mode | AID 651687 | 350,000 tested, 0.17% active | inhibition, % at 15.6 µM | U2OS PGC1a acetylation, AlphaScreen anti-acetyl-lysine; with virally co-expressed GCN5 acetyltransferase;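 active means every replicate shows inhibition of at least 40%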;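 further: 0% = neutral control wells and 100% = positive control wells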
# C2C12 statin – protects C2C12 myotubes from simvastatin toxicity; ATP luminescence, 48 h; scaled: DMSO 0, geranylgeraniol control 100; rescue of ATP level, % at 7.49 µM; 330,000 tested, 0.78% active; AID 602340;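 active means mean ATP rescue above about 67%, or every replicate alone reaching that limit, limit read from the data, passing the limit was not always enough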;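 further: myotubes were challenged with 10 µM simvastatin during compound exposure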
# Yeast UUG start – yeast start codon fidelity modulation | S. cerevisiae UUG-firefly luciferase reporter, luminescence/redox ratio | activity score, % at 18.7 µM | 350,000 tested, 0.13% active;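 active = replicate mean at a twofold rise or more, about +100% in these data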;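 also: firefly luciferase made from a UUG start codon reports start codon fidelity; reporter light over untreated wells divided by growth signal over untreated wells; some hits fall short of that in this replicate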
# hiPSC survival – enhancers of human iPSC single-cell survival | hiPSC single-cell survival, ATPlite luminescence; 100% = ROCK inhibitor wells, 0% = DMSO | survival enhancement, % at 20 µM | 360,000 tested, 0.044% active | AID 602274; in the data active means survival enhancement above about 18%;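 further: cells exposed to compounds for 16 hours before the ATP read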
# * = called active by the depositor; . = no result given; ! = not active in a repeat. Hits are enriched below; roughly 0.91% of the tested compounds scored in any of these assays.
# Each structure is followed by: hiPSC survival	Yeast UUG start	FN deposition inh	PGC1a acetyl inh	C2C12 statin
- Cc1cccc(-c2ccc([C@@H]3[C@H]4CN(S(=O)(=O)c5cccc(C)c5)CCCCN4[C@H]3CO)cc2)c1
  .	-6.2	.	-10.8	.
- Cn1c(=O)n(Cc2ccccc2)c(=O)c2c1nc1n2CCCN1Cc1ccccc1
  -2.1	-9.8	.	-4.2	116.5*
- COc1ccccc1-c1ccc2c(c1)O[C@@H](CN(C)CC1CC1)[C@@H](C)CN([C@H](C)CO)S2(=O)=O
  .	.	.	-14.7	-33.0
- c1ccc(N2CCN(Cc3nc4ccccc4[nH]3)CC2)nc1
  0.9	-13.1	2.7	.	8.8
- c1ccc(-c2ncc(CN3CCN(c4ccccn4)CC3)[nH]2)cc1
  0.3	-13.8	1.7	27.3	79.0*
- C[C@@H]1CN([C@@H](C)CO)C(=O)c2cc(C#CCN(C)C)cnc2O[C@@H]1CN(C)C(=O)CCN1CCCCC1
  .	3.7	4.4	0.2	15.0
- O=C(C=Cc1ccccc1Cl)c1ccccc1
  -3.2	.	4.6	-3.2	-4.1
- C=CCn1cccc(/C=C/C(=O)c2ccc(C(C)(C)C)cc2)c1=S
  -4.0	.	-6.0	52.6*	-24.9
- Cc1cccc(OCCCC(=O)Nc2ccc(S(=O)(=O)Nc3onc(C)c3C)cc2)c1
  2.6	.	.	0.1	.
- Cc1cccc(NC(=O)Nc2ccc(S(=O)(=O)Nc3onc(C)c3C)cc2)c1
  -0.2	-7.4	36.6*	9.5	0.3
- Cc1ccc(S(=O)(=O)N(CC(=O)N/N=C\c2cccs2)c2cccc3cccnc23)cc1
  1.5	.	-2.6	.	.
- CS(=O)(=O)N(CC(=O)N/N=C/c1cccs1)c1cccc(Cl)c1Cl
  0.8	24.4	.	-7.9	118.6*
- C[C@@H]1CN([C@H](C)CO)C(=O)c2cccc(NS(=O)(=O)c3cccs3)c2O[C@@H]1CN(C)Cc1ccc(Oc2ccccc2)cc1
  .	6.0	-4.5	5.4	79.4*
- C[C@@H]1CN([C@H](C)CO)C(=O)c2cccc(NS(=O)(=O)c3cccs3)c2O[C@@H]1CN(C)Cc1ccc(-c2ccccc2)cc1
  .	2.9	.	-5.0	70.1*
- C[C@@H]1CN([C@@H](C)CO)C(=O)c2cc(C#Cc3cccc(F)c3)cnc2O[C@H]1CN(C)CC1CCCC1
  .	7.3	.	-43.8	.

# By substructure, the compounds so far with a carbonyl joined to an NH by a bond outside any ring (four)
# Each structure is followed by: hiPSC survival	Yeast UUG start	FN deposition inh	PGC1a acetyl inh	C2C12 statin
- Cc1cccc(OCCCC(=O)Nc2ccc(S(=O)(=O)Nc3onc(C)c3C)cc2)c1
  2.6	.	.	0.1	.
- Cc1cccc(NC(=O)Nc2ccc(S(=O)(=O)Nc3onc(C)c3C)cc2)c1
  -0.2	-7.4	36.6*	9.5	0.3
- Cc1ccc(S(=O)(=O)N(CC(=O)N/N=C\c2cccs2)c2cccc3cccnc23)cc1
  1.5	.	-2.6	.	.
- CS(=O)(=O)N(CC(=O)N/N=C/c1cccs1)c1cccc(Cl)c1Cl
  0.8	24.4	.	-7.9	118.6*

# (next part)
# Each structure is followed by: hiPSC survival	Yeast UUG start	FN deposition inh	PGC1a acetyl inh	C2C12 statin
- O=C(CSc1nc2ccccc2c(=O)n1CC1CCCO1)Nc1ccccc1Cl (stereo unspecified)
  1.8	13.6	9.5	-7.1	79.2*
- CO[C@H]1CN(C)C(=O)c2cc(NC(=O)C3CC3)ccc2OC[C@@H](C)N(C(=O)NC(C)C)C[C@H]1C
  .	.	-19.3	-4.6	21.3
- Cc1noc(C)c1NC(=O)Nc1ccc2c(c1)C(=O)N([C@H](C)CO)C[C@H](C)[C@@H](CN(C)Cc1ccccc1)OCCCC[C@@H](C)O2
  .	11.3	-2.3	5.7	.
- COc1ccc(S(=O)(=O)N2CCCCC2c2cc(C(=O)Nc3ccc4c(c3)OCO4)no2)cc1 (stereo unspecified)
  -2.0	-2.2	35.2*	-26.9	-10.9
- COc1ccc(N(C(=O)CCl)C(C(=O)NCCc2ccccc2)c2cccs2)cc1Cl (stereo unspecified)
  -3.3	.	33.6*	.	.
- CCOc1ccc(-c2nc3n(c(=O)c2C#N)CCCS3)cc1
  -0.4	-19.9	.	4.4	103.0*
- O=C(Nc1ccccc1)c1nc[nH]c1C(=O)NCCCCNC(=O)c1[nH]cnc1C(=O)Nc1ccccc1
  -0.3	-20.2	9.8	.	-56.6
- O=C(Nc1cccc(Cl)c1)c1nc[nH]c1C(=O)NCCCNC(=O)c1[nH]cnc1C(=O)Nc1cccc(Cl)c1
  -1.7	1.8	4.5	4.3	105.8*
- Cc1cc(Cl)c(S(=O)(=O)Nc2ccc3c(c2)OCO3)cc1OCC(N)=O
  4.8	-11.0	-0.2	-12.6	100.5*
- Cc1cc(Cl)c(S(=O)(=O)Nc2ccc3c(c2)OCO3)cc1OCC(=O)NC1CCCCC1
  -0.1	-11.2	.	27.7	-6.1
- COc1cccc(NC(=O)N[C@H]2CC[C@H](CC(=O)N3CCN(C)CC3)O[C@@H]2CO)c1
  .	17.3	-8.1	3.8	-3.7
- COc1cc(CN2C[C@@H]3N[C@H](C2)C3c2ccc(-c3ccccc3C)cc2)cc(OC)c1 (stereo partly specified)
  .	.	13.1	104.6*!	.
- COc1ccc(-c2ccc(C3[C@@H]4CN(Cc5cccc(OC)c5)C[C@H]3N4)cc2)cc1 (stereo partly specified)
  .	.	28.0	0.1	.
- COc1cccc(-c2ccc(C3[C@@H]4CN(Cc5cccc(F)c5)C[C@H]3N4)cc2)c1 (stereo partly specified)
  .	.	-2.5	97.5*!	.
- C[C@H](CO)N1C[C@H](C)[C@@H](CN(C)C)Oc2ncc(C#CC3(O)CCCC3)cc2C1=O
  .	9.8	-6.9	24.0	6.8

# Remaining list, next part.
# Each structure is followed by: hiPSC survival	Yeast UUG start	FN deposition inh	PGC1a acetyl inh	C2C12 statin
- C[C@H]1CN([C@@H](C)CO)S(=O)(=O)c2ccc(C#CC3CC3)cc2O[C@@H]1CN(C)C(=O)C1CCCCC1
  .	1.2	-13.2	2.1	-39.8
- Cc1ccc(NC2=C/C(=N/S(=O)(=O)c3cccs3)c3ccccc3C2=O)cc1C
  -1.4	-0.7	-7.8	6.0	.
- COc1ccc(S(=O)(=O)/N=C2\C=C(Nc3ccc(O)cc3)C(=O)c3ccccc32)cc1
  -0.5	-13.2	35.7*	.	-727.2
- Cc1ccccc1NC1=C/C(=N\S(=O)(=O)c2cccs2)c2ccccc2C1=O
  1.2	-15.9	52.2*	88.0*	-236.8
- CC(=O)Nc1ccc(NC2=C/C(=N/S(=O)(=O)c3cccs3)c3ccccc3C2=O)cc1
  -0.6	.	.	70.4*	.
- Cc1ccccc1NC1=C/C(=N\S(=O)(=O)c2ccc(C(=O)O)cc2)c2ccccc2C1=O
  -0.7	-50.5	3.9	.	-708.2
- CN(Cc1ccccc1)CC1CC(c2ccccc2)OC(c2ccc(NC(=O)CCCCCCC(=O)O)cc2)O1 (stereo unspecified)
  .	4.0	.	5.8	.
- O=C(O)CCC(=O)OCC1CCCCC1
  -1.3	-9.1	-1.2	2.9	114.2*
- O=C(O)CCC(=O)NNC(=O)CCC1CCCCC1
  1.3	.	4.3	.	.
- CO[C@H]1CN(C)C(=O)c2cc(NC(=O)C3CC3)ccc2OC[C@@H](C)N(Cc2nccs2)C[C@@H]1C
  .	-5.5	6.8	2.3	-0.4
- O=C1N(c2ccccc2)C[C@@H]2C[C@@H](c3cc4ccccc4o3)N3CCC[C@@]123
  -5.2	.	.	-19.3	.
- Cc1ccc(-c2ccccc2[C@@H]2C[C@H]3CN(C)C(=O)[C@]34CCCN24)o1
  -0.7	-26.0	1.1	-0.1	103.2*
- COc1ccc(NC(=O)N(C)C[C@H]2OCCCC[C@@H](C)Oc3ccc(NS(=O)(=O)c4ccc(OC)cc4)cc3C(=O)N([C@H](C)CO)C[C@@H]2C)cc1
  .	-7.4	-9.8	-11.7	.
- CC(C)CC#Cc1cnc2c(c1)C(=O)N([C@@H](C)CO)C[C@H](C)[C@@H](CN(C)C(=O)Cc1ccccc1)O2
  .	1.7	-10.9	-6.8	58.9
- CC(C)CC#Cc1cnc2c(c1)C(=O)N([C@H](C)CO)C[C@H](C)[C@@H](CN(C)C(=O)c1ccc3c(c1)OCO3)O2
  .	15.8	.	-11.3	4.3
- CC(C)CC#Cc1cnc2c(c1)C(=O)N([C@@H](C)CO)C[C@@H](C)[C@H](CN(C)C(=O)c1ccc3c(c1)OCO3)O2
  .	3.4	.	7.6	78.4*

# Screens: PubChem, several laboratories
